# Reference: ChEMBL document CHEMBL1139804, “In vitro affinities of various halogenated benzamide derivatives as potential radioligands for non-invasive quantification of D(2)-like dopamine receptors” (Bioorg Med Chem, 2007)
# Sequences of proteins named here, by UniProt entry; tags and fusion partners are left off.
# UniProt P14416, whole entry: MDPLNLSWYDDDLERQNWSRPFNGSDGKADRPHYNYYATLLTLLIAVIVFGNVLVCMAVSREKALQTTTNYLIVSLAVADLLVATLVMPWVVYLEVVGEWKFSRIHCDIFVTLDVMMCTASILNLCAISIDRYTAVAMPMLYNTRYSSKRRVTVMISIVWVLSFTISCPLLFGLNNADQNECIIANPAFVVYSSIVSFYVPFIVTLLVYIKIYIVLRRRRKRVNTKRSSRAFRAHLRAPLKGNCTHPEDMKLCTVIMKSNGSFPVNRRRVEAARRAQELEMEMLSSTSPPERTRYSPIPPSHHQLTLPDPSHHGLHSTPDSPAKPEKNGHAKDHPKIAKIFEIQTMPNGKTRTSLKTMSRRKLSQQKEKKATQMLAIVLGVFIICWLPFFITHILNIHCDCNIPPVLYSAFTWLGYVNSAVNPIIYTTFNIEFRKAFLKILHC
# Legend:
# D(2) dopamine receptor [1] = biological target: T1, D(2) dopamine receptor (Homo sapiens, UniProt P14416); assay: Displacement of [3H]spiperone from dopamine D2short receptor in CHO cells; assay type: cell-based
# Summary of the method: (§1)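 Competition binding used membranes from stably transfected CHO cells expressing human D2long, D2short, D3 or D4.4 receptor, with [³H]spiperone at 0.1 nM final.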
# D(2) dopamine receptor [2] = biological target: T1, D(2) dopamine receptor; assay: Displacement of [3H]spiperone from dopamine D2long receptor in CHO cells; assay type: cell-based; summary of the method: as §1
structure (smiles),measurement,setting,value
CCN1CCC[C@H]1CNC(=O)c1c(O)c(Cl)cc(Cl)c1OC [RACLOPRIDE],Ki,D(2) dopamine receptor [1],31 nM
same,Ki,D(2) dopamine receptor [2],17 nM
